The values that follow come from PubChem BioAssay (NCATS).

Amino acid sequences for entries named in this document (tags omitted).
UniProt P01375, whole entry: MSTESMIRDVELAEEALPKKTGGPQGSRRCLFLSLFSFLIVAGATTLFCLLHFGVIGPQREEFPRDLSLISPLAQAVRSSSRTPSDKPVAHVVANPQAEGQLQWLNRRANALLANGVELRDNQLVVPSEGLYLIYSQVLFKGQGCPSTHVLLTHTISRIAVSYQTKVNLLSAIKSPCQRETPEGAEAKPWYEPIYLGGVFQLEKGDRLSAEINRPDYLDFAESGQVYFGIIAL
UniProt Q07869, whole entry: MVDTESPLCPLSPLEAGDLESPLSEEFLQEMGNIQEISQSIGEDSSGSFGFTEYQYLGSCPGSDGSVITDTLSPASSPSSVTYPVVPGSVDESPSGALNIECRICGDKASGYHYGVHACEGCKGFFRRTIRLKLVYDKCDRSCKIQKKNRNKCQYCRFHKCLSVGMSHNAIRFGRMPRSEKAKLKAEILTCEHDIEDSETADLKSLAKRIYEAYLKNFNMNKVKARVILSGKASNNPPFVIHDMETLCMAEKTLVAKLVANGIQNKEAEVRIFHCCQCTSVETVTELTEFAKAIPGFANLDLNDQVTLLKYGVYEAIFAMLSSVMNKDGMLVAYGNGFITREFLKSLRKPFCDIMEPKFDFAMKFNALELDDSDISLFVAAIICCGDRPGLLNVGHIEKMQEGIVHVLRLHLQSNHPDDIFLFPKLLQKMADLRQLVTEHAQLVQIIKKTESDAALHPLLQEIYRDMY
UniProt P51449, whole entry: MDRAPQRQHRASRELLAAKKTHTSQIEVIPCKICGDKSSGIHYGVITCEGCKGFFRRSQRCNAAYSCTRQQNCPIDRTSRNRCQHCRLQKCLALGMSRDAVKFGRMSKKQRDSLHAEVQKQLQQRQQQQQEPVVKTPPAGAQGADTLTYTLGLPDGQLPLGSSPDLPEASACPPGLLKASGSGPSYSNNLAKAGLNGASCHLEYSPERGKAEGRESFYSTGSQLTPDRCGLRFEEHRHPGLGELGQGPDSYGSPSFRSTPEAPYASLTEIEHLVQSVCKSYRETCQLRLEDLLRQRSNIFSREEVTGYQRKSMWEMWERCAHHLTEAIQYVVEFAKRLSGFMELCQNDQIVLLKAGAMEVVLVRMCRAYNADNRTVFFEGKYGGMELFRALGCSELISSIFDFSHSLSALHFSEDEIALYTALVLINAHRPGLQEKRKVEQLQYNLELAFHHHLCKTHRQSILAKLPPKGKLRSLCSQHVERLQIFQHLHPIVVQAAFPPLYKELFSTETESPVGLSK

Assay [1] is described as follows: Cell Proliferation Assay against the TMD8 Cell Line (AID 651645).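 Note: cells exposed to compound for 48 h before reading.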 As to conditions: TMD8 DLBCL cell line proliferation/viability; at 46.1 µM (top of the series). In short, it runs like this: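 TMD8 ABC DLBCL cells, 500 per well in phenol red-free RPMI with 5% FBS, were treated with compound by pin transfer and incubated 48 hours at 37C, 5% CO2. Viability was read by CellTiter-Glo luminescence, normalised to DMSO (100%) and 9.2 uM bortezomib (0%).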

Assay [2] in a line: qHTS assay for small molecule agonists of the antioxidant response element (ARE) signaling pathway (AID 651741; active = well fitted activation curve with a large enough effect in the signal ratio; the % refers to the signal ratio; note: potency is the fitted concentration of half-maximal effect; for activation: % of control where 0% means no effect). In short, it runs like this:
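Reporter: beta-lactamase under ARE, stably in HepG2. Exposure: 16 h, 37 C, compounds delivered in DMSO by pin tool after 5 h cell preincubation. Readout: FRET substrate fluorescence after 2 h at RT.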
A general note: Quantitative high-throughput screening tests each substance at several concentrations.

A short description of assay [3]: qHTS assay for small molecule activators of the p53 signaling pathway (AID 651743; active = well fitted activation curve with a large enough effect in the signal ratio, not every such curve was filed as active; the % refers to the signal ratio; note: % of control where 0% means no effect). As to conditions: HCT-116 p53RE-bla, beta-lactamase FRET ratio, 16 h; stronger effect = higher value. The procedure, abridged: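 Agonist-mode quantitative HTS in HCT-116 cells carrying a p53-response-element beta-lactamase reporter; 16 h compound treatment at 37 C, then FRET substrate loading for 2 h at room temperature and fluorescence read.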

Assay [4] is described as follows: qHTS assay for small molecule activators of the nuclear factor-kappa B (NF-kB) signaling pathway (AID 651749; active = well fitted activation curve with a large enough effect in the signal ratio; the % refers to the signal ratio; note: % of control where 0% means no effect). To be noted: NF-kB-bla ME-180 cells, beta-lactamase FRET ratio, 16 h; stronger effect = higher value. The procedure, abridged:
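Human ME-180 cervical cells with an NF-kB-bla construct; compounds added via 23 nL pin transfer, DMSO as vehicle; incubation 16 hr. Reporter activity measured by FRET disruption.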

Assay [5] is described as follows: qHTS assay for small molecule disruptors of the mitochondrial membrane potential - 5 hr assay (AID 651755; calls by dose curve; note: % is set by controls: 0 for no effect and ±100 for the full control effect; nearly all actives have a fitted effect of over 40% in size). As to conditions: JC-1-type ratio dye; at 92.2 µM (top of the series).
Assay [6] addresses Tumor necrosis factor (Homo sapiens) (UniProt P01375). In words: qHTS assay to identify small molecules that stimulate Tumor Necrosis Factor-alpha (TNF-alpha) secretion (AID 651757; active = well fitted curve in the direction sought with a large enough effect in the signal ratio; the % refers to the signal ratio; note: 0% is about no effect). As to conditions: Human cells, HTRF 665/615 ratio; at 92.2 µM (top of the series). In short, it runs like this: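 Secreted TNF-alpha quantified by TR-FRET sandwich of two labeled anti-TNF-alpha antibodies, incubated 3 hr at room temperature. Preceded by 17 hr, 37 C compound treatment of THP-1 cells at 3000 cells/well.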

Assay [7] is described as follows: qHTS assay to identify small molecules that stimulate interleukin-8 (IL-8) secretion (AID 651758; active = well fitted activation curve with a large enough effect in the signal ratio; the % refers to the signal ratio; note: potency is the fitted concentration of half-maximal effect). In short, it runs like this:
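Quantitative HTS in THP-1 monocytic cells at 2000 cells per well, with 16 hrs compound incubation at 37 C. IL-8 in the medium was then quantified by HTRF immunoassay, read after 1-3 hrs at room temperature.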

Assay [8] in a line: qHTS assay for environmental chemicals that activate the Aryl hydrocarbon Receptor (AhR) signaling pathway (AID 651777). Note: % of control where 0% means no effect; nearly all actives have a fitted effect of over 15% in size. As to conditions: 1A2-DRE human hepatoma cells, luciferase, 24 h; stronger effect = higher value. In short, it runs like this: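 Concentration–response screening used 1,200 1A2-DRE cells per well, 24 hr compound exposure (37 C, 5% CO2), and One-Glo luminescence as the AhR-driven CYP1A2 reporter signal.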

The target in assay [9] is Peroxisome proliferator-activated receptor alpha (Homo sapiens) (UniProt Q07869). The assay can be described thus: qHTS assay for small molecule agonists of the peroxisome proliferator-activated receptor alpha (PPARalpha) signaling pathway (AID 651778). Note: % of control where 0% means no effect. As to conditions: PathHunter PPARalpha complementation, chemiluminescence, 6 h; stronger effect = higher value. The procedure, abridged:
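Cells plated at 2,000/well and held overnight at 37 C, 5% CO2, then compound added by pin tool for 6 hr; after PathHunter detection reagent and 60 min at room temperature, chemiluminescence from enzyme complementation was read.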

The target in assay [10] is Nuclear receptor ROR-gamma (Homo sapiens) (UniProt P51449). In words: qHTS assay for small molecule antagonists of the retinoid-related orphan receptor gamma (ROR-gamma) signaling pathway (AID 651802). Note: nearly all actives have a fitted effect of over 60% in size. Note: potency is the fitted concentration of half-maximal effect.
Assay [11] is described as follows: qHTS assay for small molecule antagonists of the retinoid-related orphan receptor gamma (ROR-gamma) signaling pathway - cell viability counter screen (AID 720652; active = well fitted curve in the direction sought with a large enough effect in the repeat runs; an effect the other way counts as inactive or inconclusive;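 note: CHO reporter cells with doxycycline-induced ROR-gamma expression; compound exposure lasted 16 hr before ATP read; % is set by controls: 0 for no effect and ±100 for the full control effect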). To be noted: RORgamma reporter cell line viability counter screen; at 92.2 µM (top of the series).
Assay [12] in a line: S16 Schwann cell viability assay (CellTiter-Glo assay) (AID 624031).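 Note: native untransfected S16 rat Schwann cells; cellular ATP luminescence as a viability measure; plate controls were DMSO-treated cells for no effect and cell-free wells for full effect; nearly all actives have a fitted effect of over 70% in size.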 As to conditions: S16 rat Schwann cells viability, 24 h; at 57.5 µM (top of the series) unless noted. In short, it runs like this:
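Following overnight culture in 10% FBS DMEM, parental S16 rat Schwann cells are dosed for 24 h at 37 °C. Viability is read as CellTiter-Glo luminescence and expressed as % activity relative to DMSO (0%) and no-cell wells.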
In general terms: In ATP-based viability assays light output follows the ATP content of the culture.

Assay [13] can be described thus: S16 Schwann cell PMP22 intronic element beta-lactamase assay (AID 624044; calls by dose curve;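 note: 0% = DMSO and -100% = potassium clavulanate positive control; nearly all actives have a fitted effect of over 15% in size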). As to conditions: S16 rat Schwann cells, PMP22 element beta-lactamase FRET, 24 h; at 38.3 µM (top of the series) unless noted.
A short description of assay [14]: qHTS assay for small molecule disruptors of the mitochondrial membrane potential - 1 hr assay (AID 651754; calls by dose curve; note: % is set by controls: 0 for no effect and ±100 for the full control effect; nearly all actives have a fitted effect of over 35% in size). As to conditions: HepG2 mitochondrial membrane potential, JC-1 ratio 590/535, 1 h; at 92.2 µM (top of the series). In short, it runs like this:
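Mitochondrial potential in living HepG2 cells after 1 hr compound treatment at 37C was read with Mito-MPS dye added for a further 30 min. Red aggregate and green monomer fluorescence were measured; loss of potential leaves dye as cytoplasmic monomers.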

A short description of assay [15]: qHTS assay for small molecule agonists of the antioxidant response element (ARE) signaling pathway measured by Nrf2-dependant transcriptional activity (AID 720636; active = well fitted curve in the direction sought with a large enough effect in the repeat runs; an effect the other way counts as inactive or inconclusive; note: % of control where 0% means no effect). As to conditions: ARE-luc HepG2, Nrf2 luciferase reporter, 16 h; at 92.4 µM (top of the series). In short, it runs like this: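 Attachment 6 hr at 37 C, then compound versus DMSO vehicle for 16 hr in ARE-luc HepG2 cells (1% dialyzed FBS); luminescence recorded 30 min after ONE-Glo addition at room temperature.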

The nature of assay [16]: S16 Schwann cell PMP22 intronic element firefly luciferase assay (AID 624032).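 Note: plate controls were DMSO for no effect and PTC124 positive control mean for full effect; nearly all actives have a fitted effect of over 30% in size.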

Values joined by “and” are separate entries in the source; they are usually repeats but may differ in a detail not shown here. Identical values can stand only once. Only a part is listed here, and it is no random draw. Records with an inconclusive call do not appear. For part of these data: Results with a measured potency or affinity are listed apart. Active and inactive are the calls of the source. Unless noted, calls come from the whole dose curve; as a rule, active = well fitted curve in the direction sought with a large enough effect; inconclusive = small, poorly fitted or top-dose-only effect, or another doubt; inactive = no such curve, though single readings can be large; an effect the other way counts as inactive or inconclusive.

For `Nc1nc2ccc(OC(F)(F)F)cc2s1`, the viability (% of control) in assay [1] was found to be 31.6%.

Take `Cc1cccc([N+](=O)[O-])c1[N+](=O)[O-]`: the Potency in assay [2] is active: 9.44 µM and active: 6.86 µM; in assay [7], active: 66.8 µM; in assay [10], active: 42.2 µM. Further, the activation was inactive: -1.32% and inactive: -5.45% in [3]; inactive: -2.1% and inactive: -0.897% in [4]; inactive: 0.444% and inactive: 6.58% in [8]. For the same molecule, in assay [5], the ratio change, negative = disruption was inactive: -0.854%. Besides, the activation (TNF-alpha secretion) in assay [6] was inactive: 2.39%. Besides, the max response in assay [9] is inactive: 0.411% and inactive: -0.396%. The activity change, negative = cytotoxicity in assay [11] is inactive: -5.4%.

With `Cc1ccc([N+](=O)[O-])c([N+](=O)[O-])c1`, the activation in assay [3] is inactive: -0.263% and inactive: -2.49%; in assay [4], inactive: 0.0911% and inactive: 0.409%; in assay [8], inactive: 2.65% and inactive: 3.43%. Further, in [6], the activation (TNF-alpha secretion) is inactive: 2.91%. In addition, the Potency entry in assay [10] was “inactive”.

On to `O=[N+]([O-])c1cccc([N+](=O)[O-])c1`, for which the activity change, negative = cytotoxicity in assay [12] was inactive: 4.05%. Also, in [13], the ratio activity, negative = inhibition is inactive: 0.944%. Further, the Potency in assay [2] is active: 54.5 µM. Also, the activation in assay [3] was inactive: -0.128% and inactive: -3.12%; in assay [4], inactive: 0.607% and inactive: -0.151%; in [8], inactive: 1.84% and inactive: 3.22%; in assay [15], inactive: -0.0482%. Further, in assay [14], the ratio change, negative = depolarisation is inactive: 6.52%. The ratio change, negative = disruption in [5] is inactive: 1.82%. Besides, the activation (TNF-alpha secretion) in assay [6] is inactive: 0.998%. The max response in assay [9] was inactive: 0.356% and inactive: -6.84%. The Potency entry in assay [10] was “inactive”.

On to `CCOP(=S)(CC)Oc1cc(Cl)c(Cl)cc1Cl` (stereo not given), for which the activation in [3] is inactive: 0.676%; in assay [4] it was inactive: 0.487%; in assay [8], inactive: 10.2%; in assay [15], inactive: 0.145%. In addition, the max response in [9] is inactive: -0.255%.

On to `CN(C)CCS`, for which the activity change, negative = cytotoxicity in assay [12] is inactive: 11.6%. Further, in assay [16], the Potency entry was “inactive”. Besides, in assay [13], the ratio activity, negative = inhibition is inactive: 0.317%.

On to `CCC(C)(OO)OOC(C)(CC)OO` (stereo not given), for which, in [2], the Potency entry was “inactive”. Also, the activation in assay [3] is inactive: -0.678% and inactive: 1.25%; in assay [4] it was inactive: -0.632% and inactive: -0.603%; in assay [8], inactive: -0.147% and inactive: 1.34%; in assay [15], inactive: -0.0362%. In assay [14], the ratio change, negative = depolarisation was inactive: -1.56%. For the same molecule, in assay [5], the ratio change, negative = disruption was inactive: -0.416%. Moreover, in assay [6], the activation (TNF-alpha secretion) was inactive: -0.146%. For the same molecule, in [9], the max response is inactive: 0.629% and inactive: 0.393%. In addition, the Potency in assay [10] was active: 29.8 µM. Also, the activity change, negative = cytotoxicity in assay [11] was inactive: 17.1%.

For `CC(C)OP(=O)(F)OC(C)C`, the Potency result in assay [16] was “inactive”. Moreover, the ratio activity, negative = inhibition in assay [13] is inactive: 1.14%.

Turning to `[NH4+].[O-][Cl+3]([O-])([O-])[O-]`, the Potency result in assay [2] is “inactive”. For the same molecule, the activation in [3] was inactive: 0.306%; in [4], inactive: -0.251%; in assay [8] it was inactive: -1.37%; in assay [15], inactive: -0.845%. For the same molecule, the activation (TNF-alpha secretion) in assay [6] is inactive: 0.0762%. In assay [9], the max response was inactive: 8.2%. Moreover, in [11], the activity change, negative = cytotoxicity is inactive: 10.3%.

As to `O=[N+]([O-])OCC(CO[N+](=O)[O-])(CO[N+](=O)[O-])CO[N+](=O)[O-]`, the activity change, negative = cytotoxicity in assay [12] is inactive: 3.87%. For the same molecule, the Potency result in [16] was “inactive”. Besides, the ratio activity, negative = inhibition in assay [13] was active: -22.9%.
